Publication PMC7504039, “Tetrapeptide Ac-HAEE-NH2 Protects α4β2 nAChR from Inhibition by Aβ” (International Journal of Molecular Sciences, 2020)

Target: rat α4β2 nicotinic acetylcholine receptor (α4β2 nAChR) (rat) (UniProt P09483)

- inhibition of the ACh (100 µM)-evoked ion current in X. laevis oocytes expressing rat α4β2 nAChR after 3 min pre-incubation with 10 µM Aβ42 (two-electrode voltage clamp): 30%
Substance: Aβ42, [H2N]-[residues removed]-[COOH] (peptide)
